From patent US20250268880A1, “3-(Hydroxy)-Pyridin-4(1H)-One Compounds and Methods of Making and Using the Same” (Georgia Tech Research Corporation, priority 2018, published 2025)

Test system: Vero (a non-transformed cell line as control)
Assay: Cell viability assay (MTS), Vero
Format: cell-based
Settings: Chlorocebus sabaeus, 72 h, NI = no inhibition, read-out: Antiproliferative Activity IC50 (μM) VERO

For Cc1c(O)c(=O)ccn1C1CCC(CC2CCC(n3ccc(=O)c(O)c3C)CC2)CC1 (stereo not shown) [Compound 3g, 1,1′-(Methylenebis(cyclohexane-4,1-diyl))bis(3-hydroxy-2-methylpyridin-4(1H)-one)], which IC50 is on record?
Its IC50 is greater than 50 µM.
